Experimental data reported in patent US20250367314A1, “LINKER-PAYLOAD, AN ANTIBODY-DRUG CONJUGATE MADE THEREBY AND USES THEREOF” (TAIRX, INC., priority 2024, published 2025).
Marks after values point to notes of the source that are not given here.

How the values were obtained:
[1] = tested on: BT-474 human breast cancer xenograft; experiment: BT-474 human breast cancer xenograft model in BALB/c nude mice (linker comparison); assay type: in vivo
[2] = tested on: MDA-MB-468 human breast cancer xenograft; experiment: MDA-MB-468 human breast cancer xenograft model in BALB/c nude mice; conditions: for death or clinical signs: during the study; for % TGI: 5 mg/kg IV, QW for 2 weeks
[3] = tested on: BT-474 human breast cancer xenograft; experiment: BT-474 human breast cancer xenograft model in NOD-SCID mice (dose range study of CVM-ADC01); assay type: in vivo; conditions: for % TGI: 5 mg/kg IV, QW for 3 weeks

Row | Substance | death or clinical signs ([2]; 5 mg/kg) | % TGI ([2]; D4) [%] | % TGI ([2]; D7) [%] | % TGI ([2]; D11) | % TGI ([2]; D14) | % TGI ([2]; D18) | % TGI ([2]; D21) | % TGI ([2]; D25) | % TGI ([2]; D27) [%] | further results
1 | CVM-ADC01: Trastuzumab (Her2 Ab) conjugated with Compound 15 (DBCO-PEG6-va-PAB-DMEA-CVM-1125), DAR 3.6 | – | – | – | – | – | – | – | – | – | body weight (BW) loss ([1]; 5 mg/kg IV, QW for 3 weeks, FIG. 1A): no significant BW loss; unscheduled animal death or clinical signs ([1]; 5 mg/kg IV, QW for 3 weeks, during the study): No unscheduled animal death or clinical signs; anti-tumor efficacy compared to vehicle group (significance) ([1]; 5 mg/kg, Day 14 to Day 27): significant anti-tumor efficacy; anti-tumor efficacy (in words) ([1]; 5 mg/kg, Table 11 and FIG. 1B): can provide an anti-tumor efficacy; % TGI ([1]; D4, 5 mg/kg IV, QW for 3 weeks): 7.7%; % TGI ([1]; D7, 5 mg/kg IV, QW for 3 weeks): 22.1%; % TGI ([1]; D11, 5 mg/kg IV, QW for 3 weeks): 31.8%; % TGI ([1]; D14, 5 mg/kg IV, QW for 3 weeks): 45.2* %; % TGI ([1]; D25, 5 mg/kg IV, QW for 3 weeks): 69.2** %; % TGI ([1]; D27, 5 mg/kg IV, QW for 3 weeks): 71.1** %
2 | CVM-ADC10: Cetuximab (EGFR Ab) conjugated with Compound 15 (DBCO-PEG6-va-PAB-DMEA-CVM-1125), DAR 3.41 | no death or clinical signs | 2.64 | 6.28 | 14.23* % | 35.61** % | 45.96** % | 52.92** % | 56.68** % | 58.75 | anti-tumor efficacy compared to Cetuximab group (significance) ([2]; 5 mg/kg, Day 14 (P<0.01) to Day 21 (P=0.014)): significant anti-tumor efficacy
3 | Cetuximab [reference compound] | no death or clinical signs | −2.15 | 3.32 | 4.34% | 6.64% | 7.50% | 18.77% | 26.87% | 33.01 | –
4 | Herceptin: HER2-specific humanized antibody, reference drug [reference compound] | – | – | – | – | – | – | – | – | – | antitumor efficacy compared to Vehicle control (significance) ([3]; 5 mg/kg, Day 28): not statistically significant; % TGI ([3]; D 3): 8.7%; % TGI ([3]; D 5): 13.6%; % TGI ([3]; D7): 13.8%; % TGI ([3]; D11): 28.5%; % TGI ([3]; D14): 39.6%; % TGI ([3]; D 19): 65.1%
